Measured values published in article PMC11416981, “An investigation into the correlation between intraperitoneal teicoplanin concentrations and treatment outcomes in peritoneal dialysis-associated peritonitis” (Frontiers in Pharmacology, 2024).

Test system: PDAP patients
Conditions: second ADR patient, during teicoplanin therapy; above 120 U/L; normalized after discontinuation or symptomatic treatment

Question: Which “alanine transaminase level in patient with ADR” value does the source give for teicoplanin here?
Answer: 133 U/L
